Laboratory results as given in patent publication US20080311130A1 (IMMUNE DISEASE INSTITUTE, published 2008).
Numbering of substitutions follows the chain as printed. Numbers in names are those of the source. One block for each binder: values may come before it.

Sequences of proteins named here, by UniProt entry; tags and fusion partners are left off. Residues count along the entry.
UniProt P05362, 28-480 limits assumed: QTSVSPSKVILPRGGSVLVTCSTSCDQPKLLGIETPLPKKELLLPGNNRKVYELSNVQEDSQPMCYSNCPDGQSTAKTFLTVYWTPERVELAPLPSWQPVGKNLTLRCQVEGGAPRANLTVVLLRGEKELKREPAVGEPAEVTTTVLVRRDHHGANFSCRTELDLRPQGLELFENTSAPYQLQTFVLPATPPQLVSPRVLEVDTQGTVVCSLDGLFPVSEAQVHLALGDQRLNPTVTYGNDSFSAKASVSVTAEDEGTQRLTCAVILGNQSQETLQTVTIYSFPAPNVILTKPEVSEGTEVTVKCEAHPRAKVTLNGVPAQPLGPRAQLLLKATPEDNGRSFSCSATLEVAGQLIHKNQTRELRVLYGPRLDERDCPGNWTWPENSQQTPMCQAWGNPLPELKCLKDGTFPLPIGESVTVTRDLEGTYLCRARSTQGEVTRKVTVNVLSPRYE

Columns and labels:
[1] = target: ICAM-1-Fcγ (ICAM-1 residues of 1-480 fused to the Fc of human IgG, R&D Systems) (human) (UniProt P05362); test: flow cytometry on yeast-displayed I domain, ICAM-1-Fcγ 10 µg/ml
[2] = target: T1, ICAM-1-Fcγ (ICAM-1 residues of 1-480 fused to the Fc of human IgG, R&D Systems) (human, UniProt P05362 28-480); test: as above
T1 construct: range 1-480; Bought (R&D Systems); also called ICAM-1-Fcγ chimera; not shown: Fc of human IgG
Description: Cells that were cultured only in SD-CAA or further induced in SG-CAA were harvested, washed with 100 μl of labeling buffer (PBS, 0.5% BSA, 10 mM MgCl₂), and then incubated with ligands at 10 μg/ml in 50 μl of the labeling buffer for 20 min with shaking at 30° C. in a 96-well V-bottom plate. Ligands used in this study were anti-c-myc antibody 9E10 (Santa Cruz Biotechnology, CA) and anti-hemagglutinin antibody 12CA5 (Roche Applied Science), αL I domain-specific antibodies TS1/22 and MEM83³², and ICAM-1-Fcγ (ICAM-1 residues of 1-480 fused to the Fc of human IgG, R&D Systems). After incubation with the primary ligands, cells were washed once in 100 μl of the labeling buffer and incubated with the fluorescence-conjugated secondary antibodies at 5 μg/ml in 50 μl of the labeling buffer for 20 min at 4° C. Finally, cells were washed once in 100 μl and suspended in 100 μl of the labeling buffer for flow cytometry (FACScan, BD Biosciences).
Good display on the yeast cell wall was shown by the binding of the anti-hemagglutinin (12CA5) and anti-c-myc (9E10) antibodies and I domain-specific antibodies TS1/22 and MEM83 (FIG. 1 and not shown). Binding was also measured of ICAM-1-Fcγ chimera (FIG. 1). Binding was undetectable to the wild-type I domain, and ICAM-1 bound 56±19% as well to the IA as to the HA I domain as measured by adjusted specific fluorescence intensity (ASFI).

[3] = target: T1, ICAM-1-Fcγ (ICAM-1 residues of 1-480 …); test: cell-based or functional assay
[4] = target: T1, ICAM-1-Fcγ (ICAM-1 residues of 1-480 …); test: SPR (Biacore 3000), I domain injected over ICAM-1-Fcγ-coupled CM5 chip, 10 mM MgCl2
Description: Mutant I domains (F265S, F292A, F292G, F265S/F292G, and HA) with residues of Asn-129 to Tyr-307 were expressed in Escherichia coli BL21 (DE3) (Novagen), refolded, and purified as described previously⁶. ICAM-1-Fcγ-coupled or mock-coupled CM5 sensor chip as control was prepared using the amine coupling kit (BIAcore, Piscataway, N.J.), as described previously³³. Surface plasmon resonance was measured using Biacore 3000. I domains were injected over the chip in 20 mM Tris HCl, pH 8.0, 150 mM NaCl, 10 mM MgCl₂, at a flow rate of 10 μl/min at room temperature.
Several of the most activating mutants were expressed in Escherichia coli and refolded in order to measure the kinetics of binding to ICAM-1 by surface plasmon resonance (FIG. 2). Data are shown in Table 2, and for comparison are shown kinetics measured for the wild-type and disulfide-bonded IA and HA mutants in a previous study⁶, and for the same disulfide-bonded HA mutant in the current study.
The values shown in the table are mean ± SD from three independent measurements. The parameters of kₒₙ, koff, and Kd were calculated by fitting the 1:1 Langmuir binding model to the Biacore sensogram. The values were from the previous studies ⁶.

ICAM-1 (% ASFI of HA) [1]: 0 % ASFI of HA
B1: wild-type αL I domain (Asn-129 to Thr-318), yeast-displayed (receptor, not shown: large carriers; small tags and cut ends)
chain: NVDLVFLFDGSMSLQPDEFQKILDFMKDVMKKLSNTSYQFAAVQFSTSYKTEFDFSDYVKWKDPDALLKHVKHMLLLTNTFGAINYVATEVFREELGARPDATKVLIIITDGEATDSGNIDAAKDIIRYIIGIGKHFQTKESQETLHKFASKPASEFVKILDTFEKLKDLFTELQKKIYVIEGTSKQDLT

binding relative to the HA I domain (ASFI) [2]: 56%
B2: intermediate affinity αL I domain mutant (IA; L161C/F299C), yeast-displayed (receptor)
chain: B1 chain with L33C, F171C
notes: yeast surface display; disulfide-bonded mutant; also called IA I domain; not shown: Aga2, linker and hemagglutinin tag of pCTCON; c-myc tag

IC50 in blocking the adhesion of PMA activated lymphocytes to ICAM-1 coated surfaces [3]: 5300 nM
Kd [4]: 105 nM
koff [4]: 0.011 s⁻¹
kon [4]: 105000 M⁻¹ s⁻¹
B3: soluble high affinity αL I domain mutant HA (K287C/K294C), Asn-129 to Tyr-307 (receptor)
chain: NVDLVFLFDGSMSLQPDEFQKILDFMKDVMKKLSNTSYQFAAVQFSTSYKTEFDFSDYVKWKDPDALLKHVKHMLLLTNTFGAINYVATEVFREELGARPDATKVLIIITDGEATDSGNIDAAKDIIRYIIGIGKHFQTKESQETLHKFASKPASEFVCILDTFECLKDLFTELQKKIY
notes: also called disulfide-bonded HA mutant; HA I domain
